Laboratory results: patent publication US20260097037A1, “FUSED RING COMPOUND HAVING GLP-1 RECEPTOR AGONIST EFFECT” (Shionogi & Co., Ltd., priority 2022, published 2026)

By UniProt entry, the sequences of proteins in these tests, tags left out. Residues count along the entry.
UniProt P43220, 24-463 limits assumed: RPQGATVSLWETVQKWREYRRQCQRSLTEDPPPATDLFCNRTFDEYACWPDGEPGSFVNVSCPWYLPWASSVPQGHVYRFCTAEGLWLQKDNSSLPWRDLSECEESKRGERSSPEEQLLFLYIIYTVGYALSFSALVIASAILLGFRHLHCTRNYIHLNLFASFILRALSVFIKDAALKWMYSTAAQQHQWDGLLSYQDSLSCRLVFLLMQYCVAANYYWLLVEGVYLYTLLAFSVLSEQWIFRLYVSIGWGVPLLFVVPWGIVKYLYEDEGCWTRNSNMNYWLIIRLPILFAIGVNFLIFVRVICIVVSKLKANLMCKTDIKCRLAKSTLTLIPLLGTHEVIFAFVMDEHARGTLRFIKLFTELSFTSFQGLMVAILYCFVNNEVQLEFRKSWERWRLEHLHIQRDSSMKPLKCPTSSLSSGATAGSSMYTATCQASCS

Molecular target: Human GLP-1 receptor stably expressing cells (hGLP-1R/CHO-K1 cells) (Homo sapiens, UniProt P43220)
Test: Measurement of GLP-1 receptor agonist activity (cAMP assay)
Method: Test Example 1: Measurement of GLP-1 Receptor Agonist Activity
Human GLP-1 receptor stably expressing cells (hGLP-1R/CHO-K1 cells) are cultured in an a-MEM medium (Sigma) containing 10% FBS (Hyclone), 2% GlutaMAX (Gibco), 1% G418 (Nacalai Tesque), and 1% Penicillin-Streptomycin Mixed Solution (Sigma) at 37° C. under 5% CO2 conditions, and recovered by treating a 10 fold diluted 5.0 g/1-trypsin/5.3 mmol/1-EDTA solution (Nacalai Tesque) and cryopreserved.
A DMSO solution containing the compound of the present invention or human GLP-1 (7-36) (Phoenix Pharmaceuticals) is dispensed into a 384-well microplate (Greiner) at 62.5 nL/well, and in addition, 400 μM Forskolin (Nacalai Tesque) is dispensed therein at 7.5 nL/well. […] The solution was incubated at 37° C. for 1 hour and intracellular cAMP concentration is measured using cAMP Gs dynamic kit (Cisbio) according to the protocol attached to the product. Specifically, a cAMP-d2/Anti-cAMP-Cryptate (1/1) mixture solution is added in a total amount of 6 μL/well, and is incubated at room temperature for 1 hour, and then, time-resolved fluorescence is measured using PHERAstar (BMG Labtech). […]

Structure (SMILES): C[C@H]1c2nc(OCc3ncn(C)n3)c(C(F)(F)F)cc2CCN1Cc1nc2ccc(C(=O)O)cc2n1C[C@@H]1CCO1
- EC50 (increase in cAMP concentration in hGLP-1R/CHO-K1 cells, 37° C. 1 hour): 21.3 nM
- Emax (maximum effect, cAMP with 2 nM human GLP-1 (7-36) = 100%, DMSO only = 0%): 110%
